IC50 data for one molecule are collected here from ChEMBL document CHEMBL2346585, “Novel 1,3,4-oxadiazole thioether derivatives targeting thymidylate synthase as dual anticancer/antimicrobial agents” (Bioorg Med Chem, 2013).

A short description of the assay: Inhibition of Escherichia coli thymidylate synthase by spectrophotometric analysis.

Molecules are shown by their SMILES.

Usually IC50 stands for the concentration at which inhibition is half-maximal. Low values mean inhibition by little substance, high ones a need for much substance. In turn, `Cc1nc(=O)c2cc(CN(C)c3ccc(C(=O)N[C@@H](CCC(=O)O)C(=O)O)s3)ccc2[nH]1` [RALTITREXED] showed an IC50 of 5.7 µM.
